In US20240052079A1 (OREGON HEALTH & SCIENCE UNIVERSITY, priority 2021, published 2024):

Tests used:
[1] = Hydrolytic degradation kinetics of neat monomers by 1H NMR; format: physicochemical; conditions: for Percent remaining monomer: 50 mM monomer, aqueous pH=1, 37° C.
Protocol: Neat monomers were subject to the hydrolytic degradation kinetics assay. An aqueous solution (pH=1) was prepared using HPLC grade water and adjusted using 1.0 M HCI. A 50 mM solution of each monomer (n=3) was prepared using 1.0 mL of the acidic aqueous solution. A capillary tube was filled with a 50 mM solution of tetramethylammonium bromide dissolved in D2O and flame sealed. The capillary tube was placed at the bottom on the NMR tube to allow the “locking on” of the instrument and to act as an internal standard. ^1H NMR spectra were obtained using a water suppression by excitation sculpting experiment. After the initial reading, the NMR tubes were flame sealed and incubated at 37° C. During the first week and after 12, 19, and 30 days, the samples were removed from incubation to obtain water suppressed ^1H NMR spectra. To determine the amount of monomer degradation, spectra were first aligned using the ITSD singlet peak and then an integration region unique to a monomer vinyl proton and an integration region unique to a degradation product (methacrylic or acrylic acid) vinyl proton were used to calculate the ratio of monomer to degradation product. An integration region where a vinyl peak is found in both TMAAEA and acrylic acid was used to normalize the integration values. Additional integration regions on either side of the vinyl region were used to determine the average amount of noise in each spectra. Degradation product values with a signal to noise ratio of less than 10 were considered to show no measurable amount of degradation.

[2] = values not given; source of logP not stated

Row | Molecule | Percent remaining monomer ([1]; day 5) | Percent remaining monomer ([1]; day 7) | Percent remaining monomer ([1]; day 0) | Percent remaining monomer ([1]; day 1) | Percent remaining monomer ([1]; day 2) | Percent remaining monomer ([1]; day 3) | Percent remaining monomer ([1]; day 4) | Percent remaining monomer ([1]; day 6) | Percent remaining monomer ([1]; day 12) | Percent remaining monomer ([1]; day 19) | Percent remaining monomer ([1]; day 30) | final degradation percentage ([1]; over one month, acidic aqueous conditions (pH=1)) | logP, ranking among tested monomers [2]
1 | C=CC(=O)NN1CCCN(NC(=O)C=C)CC1 [BAADA, N,N′-bis(acrylamido) 1,4-diazepane] | 99.9 ± 0.1% | 99.9 ± 0.1% |  |  |  |  |  |  |  |  |  |  | 
2 | N,N-Diethyl-1,3-bis(acrylamido)propane [DEBAAP, reference compound] | 100.0 ± 0.0% | 100.0 ± 0.0% | 100.0 ± 0.0% | 100.0 ± 0.0% | 100.0 ± 0.0% | 100.0 ± 0.0% | 100.0 ± 0.0% | 99.9 ± 0.2% | 100.0 ± 0.0% | 100.0 ± 0.0% | 100.0 ± 0.0% | 0% | the highest among all groups
